## CycPeptMPDB entries from one study

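The data file gives no further conditions (lipid, pH, time, direction or concentration), and values from different papers need not be comparable. The list need not hold all peptides of the study. Peptides that the database sets to -10, its floor, are left out.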

PAMPA measures passive passage through an artificial lipid membrane. Permeability is given as log10 of P in cm/s; higher (less negative) is more permeable.

PAMPA (log10 cm/s)	SMILES
-5.76	CC(=O)N1CCC[C@H]1C(=O)N(C)[C@H](CC(C)C)C(=O)N[C@@H]1C(=O)N[C@H](CC(C)C)C(=O)N[C@@H](CC(C)C)C(=O)N[C@H](CC2CCCCC2)C(=O)N(C)[C@H](C)C(=O)N[C@@H](CC(C)C)C(=O)N2CCC[C@H]2C(=O)O[C@@H]1C
-6.19	COc1ccc(C[C@@H]2NC(=O)[C@@H](Cc3ccccc3)NC(=O)[C@@H](NC(=O)[C@@H](CC(C)C)N(C)C(=O)[C@@H]3CCCN3C(C)=O)[C@@H](C)OC(=O)[C@@H]3CCCN3C(=O)[C@H](CC(C)C)NC(=O)[C@@H](C)N(C)C(=O)[C@@H](Cc3ccccc3)NC2=O)cc1
-6.31	CC(=O)N[C@@H]1C(=O)N2CCC[C@H]2C(=O)N(C)[C@H](CC(C)C)C(=O)N[C@@H](CC(C)C)C(=O)N(C)[C@@H](CC(C)C)C(=O)N[C@@H](CC(C)C)C(=O)N[C@@H](C)C(=O)N[C@@H](CC(C)C)C(=O)N2CCC[C@@H]2C(=O)O[C@@H]1C
-5.37	CC(=O)N1CCC[C@H]1C(=O)N(C)[C@H](CC(C)C)C(=O)N[C@@H]1C(=O)N[C@H](Cc2ccccc2)C(=O)N[C@@H](Cc2ccccc2)C(=O)N[C@H](CC2CCCCC2)C(=O)N(C)[C@H](C)C(=O)N[C@@H](CC(C)C)C(=O)N2CCC[C@H]2C(=O)O[C@@H]1C
-5.11	CC(=O)N1CCC[C@H]1C(=O)N[C@@H]1C(=O)N(C)[C@H](CC(C)C)C(=O)N(C)[C@H](CC(C)C)C(=O)N[C@H](CC(C)C)C(=O)N(C)[C@H](CC(C)C)C(=O)N[C@H](C)C(=O)N[C@@H](CC(C)C)C(=O)N2CCC[C@@H]2C(=O)O[C@@H]1C
-5.47	CC(=O)N[C@@H]1C(=O)N2CCC[C@H]2C(=O)N(C)[C@H](CC(C)C)C(=O)N[C@@H](CC(C)C)C(=O)N(C)[C@@H](CC(C)C)C(=O)N(C)[C@@H](CC(C)C)C(=O)N(C)[C@H](C)C(=O)N[C@@H](CC(C)C)C(=O)N2CCC[C@@H]2C(=O)O[C@@H]1C
-5.76	CC(=O)N1CCC[C@H]1C(=O)N[C@@H]1C(=O)N(C)[C@H](CC(C)C)C(=O)N[C@@H](CC(C)C)C(=O)N(C)[C@H](CC(C)C)C(=O)N[C@H](CC(C)C)C(=O)N[C@H](C)C(=O)N[C@@H](CC(C)C)C(=O)N2CCC[C@@H]2C(=O)O[C@@H]1C
-5.22	CC[C@@H]1NC(=O)[C@@H](CC2CCCCC2)NC(=O)[C@@H](NC(=O)[C@@H](CC(C)C)N(C)C(=O)[C@@H]2CCCN2C(C)=O)[C@@H](C)OC(=O)[C@@H]2CCCN2C(=O)[C@H](CC(C)C)NC(=O)[C@@H](C)N(C)C(=O)[C@@H](Cc2ccccc2)NC1=O
-5.47	CC[C@H]1NC(=O)[C@@H](NC(=O)[C@@H](CC(C)C)N(C)C(=O)[C@@H]2CCCN2C(C)=O)[C@@H](C)OC(=O)[C@@H]2CCCN2C(=O)[C@H](CC(C)C)NC(=O)[C@@H](C)N(C)C(=O)[C@@H](Cc2cccc3ccccc23)NC(=O)[C@H](Cc2ccccc2)NC1=O
-6.85	CC(=O)N1CCC[C@H]1C(=O)N(C)[C@H](CC(C)C)C(=O)N[C@@H]1C(=O)N[C@H](Cc2ccc(F)c(F)c2)C(=O)N[C@@H](Cc2ccccc2)C(=O)N[C@H](Cc2cccc3ccccc23)C(=O)N(C)[C@H](C)C(=O)N[C@@H](CC(C)C)C(=O)N2CCC[C@H]2C(=O)O[C@@H]1C
-5.68	CC(=O)N1CCC[C@H]1C(=O)N[C@@H]1C(=O)N(C)[C@H](CC(C)C)C(=O)N(C)[C@H](CC(C)C)C(=O)N[C@H](CC(C)C)C(=O)N[C@@H](CC(C)C)C(=O)N(C)[C@H](C)C(=O)N[C@@H](CC(C)C)C(=O)N2CCC[C@@H]2C(=O)O[C@@H]1C
-5.64	CC[C@H]1NC(=O)[C@H](Cc2ccc(OC)cc2)NC(=O)[C@@H](CC2CCCCC2)NC(=O)[C@@H](NC(=O)[C@@H](CC(C)C)N(C)C(=O)[C@@H]2CCCN2C(C)=O)[C@@H](C)OC(=O)[C@@H]2CCCN2C(=O)[C@H](CC(C)C)NC(=O)[C@@H](C)N(C)C1=O
-5.46	CCC[C@H]1NC(=O)[C@@H](NC(=O)[C@@H](CC(C)C)N(C)C(=O)[C@@H]2CCCN2C(C)=O)[C@@H](C)OC(=O)[C@@H]2CCCN2C(=O)[C@H](CC(C)C)NC(=O)[C@@H](C)N(C)C(=O)[C@@H](Cc2ccccc2)NC(=O)[C@H](CC(C)C)NC1=O
-5.71	CCC[C@H]1NC(=O)[C@@H](NC(=O)[C@@H](CC(C)C)N(C)C(=O)[C@@H]2CCCN2C(C)=O)[C@@H](C)OC(=O)[C@@H]2CCCN2C(=O)[C@H](CC(C)C)NC(=O)[C@@H](C)N(C)C(=O)[C@@H](CCC)NC(=O)[C@H](Cc2ccccc2)NC1=O
-5.58	CC(=O)N1CCC[C@H]1C(=O)N(C)[C@H](CC(C)C)C(=O)N[C@@H]1C(=O)N[C@H](CC(C)C)C(=O)N[C@@H](Cc2ccccc2)C(=O)N[C@H](Cc2ccc(F)c(F)c2)C(=O)N(C)[C@H](C)C(=O)N[C@@H](CC(C)C)C(=O)N2CCC[C@H]2C(=O)O[C@@H]1C
-5.72	COc1ccc(C[C@@H]2NC(=O)[C@@H](CC(C)C)NC(=O)[C@@H](NC(=O)[C@@H](CC(C)C)N(C)C(=O)[C@@H]3CCCN3C(C)=O)[C@@H](C)OC(=O)[C@@H]3CCCN3C(=O)[C@H](CC(C)C)NC(=O)[C@@H](C)N(C)C(=O)[C@@H](Cc3ccccc3)NC2=O)cc1
-5.93	CC(=O)N[C@@H]1C(=O)N2CCC[C@H]2C(=O)N(C)[C@H](CC(C)C)C(=O)N[C@H](CC(C)C)C(=O)N(C)[C@@H](CC(C)C)C(=O)N[C@H](CC(C)C)C(=O)N(C)[C@@H](C)C(=O)N[C@@H](CC(C)C)C(=O)N2CCC[C@@H]2C(=O)O[C@@H]1C
-5.53	CCC[C@@H]1NC(=O)[C@@H](CC2CCCCC2)NC(=O)[C@@H](NC(=O)[C@@H](CC(C)C)N(C)C(=O)[C@@H]2CCCN2C(C)=O)[C@@H](C)OC(=O)[C@@H]2CCCN2C(=O)[C@H](CC(C)C)NC(=O)[C@@H](C)N(C)C(=O)[C@@H](Cc2ccccc2)NC1=O

Excerpt, the final 3 entries:

SMILES	PAMPA (log10 cm/s)
COc1ccc(C[C@@H]2NC(=O)[C@@H](CC(C)C)NC(=O)[C@@H](NC(=O)[C@@H](CC(C)C)N(C)C(=O)[C@@H]3CCCN3C(C)=O)[C@@H](C)OC(=O)[C@@H]3CCCN3C(=O)[C@H](CC(C)C)NC(=O)[C@@H](C)N(C)C(=O)[C@@H](Cc3ccccc3)NC2=O)cc1	-5.72
CC(=O)N[C@@H]1C(=O)N2CCC[C@H]2C(=O)N(C)[C@H](CC(C)C)C(=O)N[C@H](CC(C)C)C(=O)N(C)[C@@H](CC(C)C)C(=O)N[C@H](CC(C)C)C(=O)N(C)[C@@H](C)C(=O)N[C@@H](CC(C)C)C(=O)N2CCC[C@@H]2C(=O)O[C@@H]1C	-5.93
CCC[C@@H]1NC(=O)[C@@H](CC2CCCCC2)NC(=O)[C@@H](NC(=O)[C@@H](CC(C)C)N(C)C(=O)[C@@H]2CCCN2C(C)=O)[C@@H](C)OC(=O)[C@@H]2CCCN2C(=O)[C@H](CC(C)C)NC(=O)[C@@H](C)N(C)C(=O)[C@@H](Cc2ccccc2)NC1=O	-5.53

Source: CycPeptMPDB (Li et al. 2023), which took these values from Kelly et al. 2021, doi:10.1021/jacs.0c06115.